Measured affinities in a library of Ab-14 light chain variants

Antigen: PDVDLGDISGINAS, a 14-residue peptide of the SARS-CoV-2 spike HR2 region.

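The parent was found by panning a naive human phage display library on the peptide. The variants were designed computationally from a first round of random CDR variants and then made and measured. Group labels follow the data file (Ctrl: baseline library sampled from a position-specific scoring matrix, with some repeated check sequences; Rand: our label for a block that the file lists under HC and that is probably the random mutants of the ten best first-round binders; GP: Gaussian process model; HC: hill climbing; Gen: genetic algorithm; Gibbs: Gibbs sampling; a sequence that several methods proposed may carry one label only). Affinity was read by AlphaSeq, a pooled yeast mating assay with surface-displayed partners. Binding brings cells together so that they mate, and sequencing counts the barcode pairs among the diploids. Read counts were normalised to the haploid input and turned into Kd by a linear fit to BCL2-family pairs of known affinity, for each replicate. There are six technical replicates.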

Ab-14 is the parent antibody, in scFv form: VH, then three GGGGS repeats, then VL. The heavy chain is unchanged in all variants.
VH: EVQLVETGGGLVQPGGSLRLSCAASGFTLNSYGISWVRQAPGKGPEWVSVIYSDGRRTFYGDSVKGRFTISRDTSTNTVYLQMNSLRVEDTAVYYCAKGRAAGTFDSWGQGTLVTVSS
VL: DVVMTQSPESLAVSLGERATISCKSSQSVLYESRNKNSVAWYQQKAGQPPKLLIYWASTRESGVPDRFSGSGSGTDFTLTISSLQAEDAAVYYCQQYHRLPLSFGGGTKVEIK

Substitutions are numbered in sequence along the VL above, starting at 1 (not Kabat).
This list holds designs with at most six substitutions.
The read-out is the apparent dissociation constant on a log10 scale (nM): the lower, the stronger.
An entry "ND" has no value in the source: the pair was not observed among the diploids in that replicate. This suggests poor binding but is not conclusive.
In the paper, a design with two or fewer of six values counts as a poor binder.

* S25I Y31A W56E Y97P [Ctrl]: ND, ND, 1.67, ND, ND, ND
* V29F N35V W56G T59Q [GP_HC]: 0.48, 0.56, 0.49, 0.64, 0.41, 0.70
* S25F Q27G V29W W56N H98R [GP_Gibbs]: -0.21, -0.29, -0.33, -0.42, -0.36, -0.21
* S25Y L30V E32D N35Y Q96E P101K [Ctrl]: 0.99, 1.01, 1.60, 1.10, 1.39, 1.16
* S33D K36G [Ctrl]: ND, ND, ND, ND, ND, ND
* S25L Q27S V29M W56N [GP_Gen]: 0.31, -0.08, 0.07, 0.03, 0.01, 0.02
* S25F W56N T59Q [GP_Gen]: -0.22, -0.45, -0.42, -0.24, -0.27, -0.39
* S25P S33F W56Q Y97H R99C [Ctrl]: ND, ND, ND, ND, ND, ND
* S26P Q27T L30T N35L W56N S103E [Ctrl]: 1.47, 1.30, 1.80, 1.31, 1.22, 1.56
* S25M V29W K36S W56E E61L [GP_Gibbs]: 0.15, 0.28, 0.19, 0.08, 0.12, 0.32
* Y31K W56G [Ctrl]: 0.67, 1.30, 0.89, 1.24, 1.05, 1.35
* S26A Q27A V29E Y31L W56S S62V [GP_Gibbs]: -0.05, -0.17, -0.15, -0.08, 0.02, -0.07
* S26E S28H V29M E32F W56D L100S [Ctrl]: ND, ND, ND, ND, ND, 2.90
* S25V N37Q W56E [GP_Gen]: 0.08, -0.32, -0.29, -0.48, -0.31, -0.19
* K24T S25Q W56D [Rand]: 0.52, 1.01, 0.46, 0.67, 0.43, 0.84
* S25L L30M V39I W56M L100V [Ctrl]: ND, ND, ND, ND, ND, ND
* S25L K36T W56N [GP_Gen]: 0.01, -0.38, -0.18, -0.30, -0.22, -0.09
* S25L V29D S38N W56H [GP_Gen]: -0.07, -0.18, -0.44, -0.35, -0.32, -0.14
* S25L S26L N35D W56H E61L S62D [GP_HC]: 0.21, 0.20, 0.27, -0.07, 0.21, 0.25
* S25L L30M N35M W56N [GP_Gen]: -0.13, -0.46, -0.38, -0.35, -0.51, -0.28
* S25L S26E V29E W56N E61Y [GP_Gen]: 0.00, 0.07, -0.15, -0.20, -0.09, 0.10
* S25L S26L L30V S33G W56H S62D [GP_HC]: 0.60, 0.47, 0.39, 0.44, 0.57, 0.43
* W56H S103D [Ctrl]: 1.72, 1.43, 3.52, 1.46, 1.71, 1.10
* S25T E32Q W56N Q96A [Ctrl]: 1.53, 1.66, 1.27, 1.28, 2.29, 1.24
* V29W K36W W56G [Rand]: 0.40, 0.22, 0.07, 0.12, 0.19, 0.37
* S25L W56E E61C S62Q [GP_Gen]: 0.00, -0.23, -0.26, -0.04, -0.12, -0.12
* Q27I V29H Y31G W56E [GP_HC]: 1.61, 0.95, 0.86, 1.09, 1.63, 1.17
* S25V V29D W56D T59Q [GP_Gen]: 0.37, 0.09, 0.21, 0.13, 0.14, 0.37
* V29C R34G W56H [GP_HC]: 0.72, 0.75, 0.72, 0.53, 0.58, 0.78
* R34L N35H [Ctrl]: ND, ND, ND, ND, ND, ND
* S25L V29T E32D R34G H98K [GP_HC]: 0.50, 0.34, 0.40, 0.31, 0.38, 0.57
* S25L L30P S33E W56N E61M [GP_Gen]: -0.21, -0.31, -0.40, -0.71, -0.53, -0.24
* K36L W56S [Ctrl]: 1.13, 1.38, 0.62, 0.30, 0.99, 0.87
* Q27I V29Y L30P K36T W56E [GP_HC]: 0.06, 0.15, 0.31, 0.43, 0.08, 0.55
* R34P S38G W56E [Ctrl]: 0.52, 0.86, 1.04, 0.46, 0.67, 0.65
* S25L W56D S58N [GP_Gen]: 0.67, 0.64, 0.35, 0.54, 0.50, 0.80
* S26I V29M H98S [Ctrl]: ND, 1.93, 2.13, 2.11, 2.47, 2.52
* S25L S38N W56N E61M [GP_Gen]: 0.00, -0.03, -0.08, -0.14, -0.12, -0.17
* S25L V29F L30W S33E W56N T59K [GP_Gibbs]: 0.06, -0.17, -0.20, -0.43, -0.35, -0.16
* S25T S26Y Q27V V29D W56N T59E [GP_Gibbs]: 0.15, 0.19, 0.30, 0.08, 0.32, 0.21
* S25V S26E V29G W56N [GP_Gen]: 0.11, 0.16, 0.07, -0.07, 0.13, 0.46
* S25I W56S E61M S62P [Ctrl]: -0.11, -0.29, -0.19, -0.34, -0.28, -0.19
* S26L Q27W R34N K36V W56H S62D [GP_HC]: 2.09, 1.81, 2.12, 2.45, 2.28, 2.63
* S25L N35D W56N [GP_Gen]: 0.05, -0.07, -0.04, -0.35, -0.21, 0.03
* S26Q Q27N V29S R34N R99I [Ctrl]: ND, ND, ND, ND, ND, ND
* Q27I V29E Y31G S33K W56E [GP_HC]: 1.23, 1.58, 0.98, 0.96, 0.91, 1.26
* Q27D Y31Q W56D [GP_HC]: 0.27, 0.27, 0.40, 0.09, 0.26, 0.33
* L30D Y31F W56D S62Q [GP_HC]: 0.10, 0.07, -0.17, -0.12, -0.11, -0.03
* S25I W56R P101V [Ctrl]: 1.77, 0.63, ND, 0.67, 1.70, -0.17
* L30P Y31M W56A A57G S58G [Ctrl]: 0.43, 0.43, 0.38, 0.18, 0.26, 0.52
* S25V V29W Y31M W56E E61T [GP_HC]: -0.36, -0.26, -0.15, -0.49, -0.09, -0.15

Top 7 of the variants detected in all replicates, tightest first:

{"changes": "S25L L30P S33E W56N E61M", "group": "GP_Gen", "log10 Kd (nM) by replicate": "-0.21, -0.31, -0.40, -0.71, -0.53, -0.24"}
{"changes": "S25L L30M N35M W56N", "group": "GP_Gen", "log10 Kd (nM) by replicate": "-0.13, -0.46, -0.38, -0.35, -0.51, -0.28"}
{"changes": "S25F W56N T59Q", "group": "GP_Gen", "log10 Kd (nM) by replicate": "-0.22, -0.45, -0.42, -0.24, -0.27, -0.39"}
{"changes": "S25F Q27G V29W W56N H98R", "group": "GP_Gibbs", "log10 Kd (nM) by replicate": "-0.21, -0.29, -0.33, -0.42, -0.36, -0.21"}
{"changes": "S25V V29W Y31M W56E E61T", "group": "GP_HC", "log10 Kd (nM) by replicate": "-0.36, -0.26, -0.15, -0.49, -0.09, -0.15"}
{"changes": "S25V N37Q W56E", "group": "GP_Gen", "log10 Kd (nM) by replicate": "0.08, -0.32, -0.29, -0.48, -0.31, -0.19"}
{"changes": "S25L V29D S38N W56H", "group": "GP_Gen", "log10 Kd (nM) by replicate": "-0.07, -0.18, -0.44, -0.35, -0.32, -0.14"}

Three control strains display no target. For all light chain designs, 4% of the pairings with them gave a signal, with a median of 2.64 and one signal in twenty below 1.59, so weak values seen in few replicates may be background.
Values of this round are not directly comparable with the first-round values of the same sequences.
The parent sequence was in this pool as ten entries: three were never detected, three once, and four in most replicates, with averages from 0.34 to 2.37.

From the AlphaSeq antibody data of Li et al. 2023 (doi:10.1038/s41467-023-39022-2), copy in the FLAb collection.